Consider 1 sequence from patent US9950048B2, “Immunogenic epitopes for immunotherapy” (immatics biotechnologies GmbH, priority 2007, dated 2018).

Series [1] relates to CD8+ T cells of healthy HLA-A*02+ donors. Kind of series: In vitro priming of CD8+ T cells with pMHC/anti-CD28 coated beads (high density), tetramer analysis. Format: cell-based, human. The text has this:
To perform in vitro stimulations by artificial antigen presenting cells (aAPC) loaded with peptide-MHC complex (pMHC) and anti-CD28 antibody, first PBMCs (peripheral blood mononuclear cells) were isolated from fresh HLA-A*02+ buffy coats by using standard density gradient separation medium (PAA, Cölbe, Germany). Buffy coats were either obtained from the Blood Bank Tübingen or from the Katharinenhospital Stuttgart. […] Generation of pMHC/anti-CD28 coated beads, T-cell stimulations and readout was performed as described before (Walter, S, et al., 2003, J. Immunol., 171, 4974-4978) with minor modifications. […]
800,000 beads/200 μl were coated in 96-well plates in the presence of 600 ng biotin anti-CD28 plus 200 ng relevant biotin-pMHC (high density beads) or 2 ng relevant plus 200 ng irrelevant (pMHC library) MHC (low density beads). […] Peptide specific cells were calculated as percentage of total CD8+ T cells. […] In vitro priming of specific tetramer+CD8+ lymphocytes was detected by appropriate gating and by comparison to negative control stimulations. […]
Results of in vitro immunogenicity experiments conducted by immatics are summarised here. […] As different human serum lots may highly affect the immunogenicity results, only assays in which one and the same serum lot was used, were evaluated together.

Series [2] in a line: Particle size/shape measurement and analytical HPLC of reconstituted IMA910 suspension. It counts as physicochemical. The note with it: analytical HPLC of suspension. How it is done: Particle size distribution and particle shape measurement of the particles obtained after reconstitution have been performed by capturing direct images of each individual particle in the range of 0.25 to 100 μm followed by image analysis.
Furthermore, analytical HPLC was performed for a closer characterization of the obtained suspension.
IMA910 is dissolved in 700 μL sodium hydrogen carbonate (4.2%).

Several values for one entry are separate records, joined by “and”; a condition that tells them apart may be missing. Identical values can stand only once.

With “FLPSDFFPSV [IMA-HBV-001, reference compound]”, in series [1], the Positive donors/donors tested was 2/5 and 7/16; the Positive wells/wells tested was 10/54 and 10/107. In series [2], the “amount of peptide found in the particles” value is recorded as “low amounts”.
